In PubChem BioAssay AID886 (National Center for Advancing Translational Sciences (NCATS), 2007) one finds activity change, negative = inhibition and Potency data, which are given here for 40 compounds.

The chains behind the UniProt entries cited, without tags or fusion partners. Where a name states a change or a piece, a line headed by the entry shows the natural chain unless it says otherwise.
UniProt Q99714: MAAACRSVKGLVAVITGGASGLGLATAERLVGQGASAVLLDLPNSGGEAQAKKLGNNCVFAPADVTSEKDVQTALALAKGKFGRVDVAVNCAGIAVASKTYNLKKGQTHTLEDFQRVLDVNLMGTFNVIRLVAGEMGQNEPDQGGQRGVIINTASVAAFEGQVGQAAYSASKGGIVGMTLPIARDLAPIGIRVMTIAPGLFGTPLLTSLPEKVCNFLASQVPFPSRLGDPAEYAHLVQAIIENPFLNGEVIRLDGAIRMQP

Molecules are shown by their SMILES. Only a part is listed here, and it is no random draw. Records with an inconclusive call do not appear. Where a call stands in place of a potency, no number is given. Active and inactive are the calls of the source. Calls follow the shape of the dose curve; as a rule, active = well fitted inhibition curve with a large enough effect; inconclusive = small, poorly fitted or top-dose-only effect; inactive = no such curve, though single readings can be large or run the other way.
Potency is read from the fitted curve at half-maximal effect.

The target of this assay is 3-hydroxyacyl-CoA dehydrogenase type-2 (Homo sapiens) (UniProt Q99714). The experiment in a line: qHTS Assay for Inhibitors of HADH2 (Hydroxyacyl-Coenzyme A Dehydrogenase, Type II). Also: nearly all actives have a fitted effect of over 60% in size. The following applies: recombinant HADH2, NADH fluorescence, beta-hydroxybutyryl-CoA; series mostly up to 57.1 µM. In general terms: In qHTS, concentration-response curves come from the screen itself.
Consider `Cc1cc([N+](=O)[O-])cc([N+](=O)[O-])c1O`, for which the activity change, negative = inhibition result is “inactive”.

On to `[N-]=[N+]=Nc1ccc([As](=O)(O)O)cc1`, for which the activity change, negative = inhibition was inactive: 0.985% [at 11.4 µM].

Turning to `O=C(OC1CN2CCC1CC2)c1cccc(Cl)c1` (stereo not given), the activity change, negative = inhibition entry is “inactive”.

Turning to `c1nnnn1CCn1cnnn1`, the activity change, negative = inhibition entry was “inactive”.

Consider `O=P(Nc1nccs1)(c1ccccc1)c1ccccc1`, for which the activity change, negative = inhibition result is “inactive”.

`C[C@@H](O)COc1ccc([As](=O)(O)O)cc1N`: the activity change, negative = inhibition was inactive: 13.3% [at 11.4 µM].

Consider `CN1CCC[C@H](OC(=O)C(c2ccccc2)c2ccccc2)C1`, for which the activity change, negative = inhibition was inactive: 24.9% [at 11.4 µM].

As to `O=P1(Nc2nc3ccc(Cl)cc3s2)COc2ccccc2O1` (stereo not given), the activity change, negative = inhibition entry is “inactive”.

For the compound `COC(=O)c1cc2c(s1)N=C(c1ccccc1)N(C)P2(=O)N1CCOCC1` (stereo not given), the activity change, negative = inhibition entry is “inactive”.

For `CN(C(=O)Cc1ccc(Cl)c(Cl)c1)[C@H]1CCCC[C@@H]1N1CCCC1`, the activity change, negative = inhibition result is “inactive”.

Consider `C(Cc1nn[nH]n1)c1nn[nH]n1`, for which the activity change, negative = inhibition is inactive: -14.1% [at 11.4 µM].

`[N-]=[N+]=NCC(O)CN=[N+]=[N-]` (stereo not given): the activity change, negative = inhibition was inactive: -6.15% [at 11.4 µM].

With `O=[N+]([O-])c1ccc(C[As](=O)(O)O)cc1`, the activity change, negative = inhibition was inactive: 1.28% [at 11.4 µM].

On to `NCC[C@@H](N)CSP(=O)(O)O`, for which the activity change, negative = inhibition is inactive: -10.5% [at 11.4 µM].

For the compound `Cc1c2non([O-])c-2c(C)[n+](=O)[n+]1[O-]`, the Potency was active: 1000 nM.

`O=C(CO)Nc1ccc([As](=O)(O)O)cc1`: the activity change, negative = inhibition was inactive: 5.43% [at 11.4 µM].

For `CN(C(=O)Cc1ccccc1)[C@@H]1CC[C@@]2(CCCO2)C[C@H]1N1CCCC1`, the activity change, negative = inhibition result is “inactive”.

Regarding `CN(N=O)C(=N)N[N+](=O)[O-]`, the activity change, negative = inhibition entry is “inactive”.

Turning to `O=C(COc1ccccc1)OC1CN2CCC1CC2` (stereo not given), the activity change, negative = inhibition result is “inactive”.

Turning to `O=C(O)[C@@H](O)c1ccc([As](=O)(O)O)cc1`, the activity change, negative = inhibition was inactive: 4.11% [at 11.4 µM].

Regarding `COP1(=S)c2c(C)nn(CCC#N)c2N=C(c2ccc(F)cc2)N1C` (stereo not given), the activity change, negative = inhibition entry was “inactive”.

As for `NC(=O)Nc1cc([As](=O)(O)O)cc(I)c1O`, the activity change, negative = inhibition is inactive: -22.8% [at 11.4 µM].

For `O=C(OC1CN2CCC1CC2)C12CC3CC(CC(C3)C1)C2` (stereo not given), the activity change, negative = inhibition entry is “inactive”.

With `[N-]=[N+]=NCC(N)=O`, the activity change, negative = inhibition was inactive: 13.8% [at 11.4 µM].

For `O=[As]c1ccc(S(=O)(=O)NCCO)cc1` (stereo not given), the activity change, negative = inhibition was inactive: -4.17% [at 11.4 µM].

With `O=[As](O)(O)c1ccc([As](=O)(O)O)cc1`, the activity change, negative = inhibition was inactive: -2.53% [at 11.4 µM].

Regarding `CCOP1(=S)c2c(C)nn(CCC#N)c2N=C(c2ccccc2F)N1C` (stereo not given), the activity change, negative = inhibition entry was “inactive”.

As for `O=P(Nc1nccs1)(c1ccccc1)c1nc2ccccc2s1` (stereo not given), the Potency was active: 2000 nM.

Take `CCOP1(=S)c2c(C)nn(CCC#N)c2N=C(c2ccc(F)cc2)N1C` (stereo not given): the activity change, negative = inhibition result was “inactive”.

Turning to `NC(=O)Nc1ccc([As](=O)(O)O)cc1`, the activity change, negative = inhibition entry is “inactive”.

Turning to `CN(C(=O)Cc1ccc(Cl)c(Cl)c1)[C@@H]1CC[C@@]2(CCCO2)C[C@H]1N1CCCC1`, the activity change, negative = inhibition result is “inactive”.

For `NS(=O)(=O)Cc1ccc([As](=O)(O)O)cc1`, the activity change, negative = inhibition was inactive: 8.51% [at 11.4 µM].

In the case of `O=C(CC(=O)c1ccccc1)O[C@H]1CN2CCC1CC2`, the activity change, negative = inhibition is inactive: 14.7% [at 11.4 µM].

Take `Clc1n[nH]nc1-c1nn[nH][15n]1`: the activity change, negative = inhibition result was “inactive”.

For the compound `CN(CCCl)Cc1cc(Cl)c(NC2=NCCN2)c(Cl)c1`, the activity change, negative = inhibition result was “inactive”.

Regarding `O=P1(Nc2ccccn2)COc2ccccc2OC1`, the activity change, negative = inhibition result was “inactive”.

Consider `CN(C(=O)Cc1ccc(Cl)c(Cl)c1)[C@@H]1CCCC[C@H]1N1CCCC1`, for which the activity change, negative = inhibition entry is “inactive”.

Take `Cc1nn(-c2ccccc2)c2c1P(=O)(N1CCOCC1)N(C)C(c1ccccc1)=N2` (stereo not given): the activity change, negative = inhibition result was “inactive”.

Take `O=P1(Nc2ccc(Br)cn2)COc2ccccc2OC1`: the activity change, negative = inhibition result was “inactive”.

As to `O=P1(Nc2ncccn2)COc2ccccc2OC1`, the activity change, negative = inhibition result is “inactive”.
